Results as given in ChEMBL document CHEMBL1124488 (J Med Chem, 1989).

Protein sequences, listed by entry. Tags and fused reporters are not part of them. Lines headed by an entry give the natural chain unless they say otherwise; changes in a name come on top.
UniProt P97266, whole entry, looked up: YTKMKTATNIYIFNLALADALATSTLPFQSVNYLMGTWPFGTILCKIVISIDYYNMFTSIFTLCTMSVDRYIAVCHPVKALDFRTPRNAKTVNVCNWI
UniProt P41144: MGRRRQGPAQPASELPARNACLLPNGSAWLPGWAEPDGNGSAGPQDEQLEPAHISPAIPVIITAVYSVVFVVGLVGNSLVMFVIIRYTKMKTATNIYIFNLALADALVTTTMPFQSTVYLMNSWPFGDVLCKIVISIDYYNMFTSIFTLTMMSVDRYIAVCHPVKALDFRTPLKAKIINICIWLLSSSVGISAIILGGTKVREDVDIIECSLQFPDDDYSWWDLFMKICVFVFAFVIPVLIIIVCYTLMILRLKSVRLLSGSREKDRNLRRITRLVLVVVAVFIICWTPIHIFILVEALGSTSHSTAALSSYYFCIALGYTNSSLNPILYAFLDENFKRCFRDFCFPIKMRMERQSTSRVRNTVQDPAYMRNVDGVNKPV

Experiments:
Mu-type opioid receptor [1] = target: T1, Mu-type opioid receptor (Cavia porcellus, UniProt P97266); experiment: Inhibitory activity against Opioid receptor mu 1 of guinea pig brain using [3H]DAG0 radioligand
[2] = target: T2, Kappa-type opioid receptor (Cavia porcellus, UniProt P41144); experiment: Binding inhibition against Opioid receptor kappa 1 of guinea pig was determined using [3H]ethylketocyclazocine
[3] = target: T2, Kappa-type opioid receptor; experiment: Binding inhibition against opioid receptor kappa of guinea pig was determined using [3H]ethylketocyclazocine
Mu-type opioid receptor [4] = target: T1, Mu-type opioid receptor; experiment: Inhibitory activity against opioid receptor mu of guinea pig brain using [3H]DAGO radioligand
Mu-type opioid receptor [5] = target: T1, Mu-type opioid receptor; experiment: Inhibitory activity against Opioid receptor mu 1 of guinea pig brain using [3H]DAGO radioligand

Row | Compound | IC50 (Mu-type opioid receptor [1]) [nM] | IC50 [2] [nM] | IC50 [3] [nM] | IC50 (Mu-type opioid receptor [4]) [nM] | IC50 (Mu-type opioid receptor [5]) [nM]
1 | CN1CCC[C@@]12CCCC[C@@H]2NC(=O)Cc1ccc(Cl)c(Cl)c1 | 250 | > 10000 | – | – | –
2 | CN(C(=O)Cc1ccc(Cl)c(Cl)c1)[C@H]1CCCC[C@@]12CCCN2C | 87 | > 10000 | – | – | –
3 | CN1CCC[C@@]12CCCC[C@@H]2NC(=O)CCc1ccccc1 | – | – | 2800 | > 10000 | –
4 | CN1CCC[C@@]12CCCC[C@@H]2NC(=O)Cc1ccc(Br)cc1 | – | > 10000 | – | – | 720
5 | CN1CCC[C@@]12CCCC[C@@H]2NS(=O)(=O)c1ccc(Br)cc1 | – | > 10000 | – | – | > 10000
